The text below walks through data of patent US7276644.

For series [1], the target named is F-actin prepared from acetone powder of rabbit muscle (rabbit) (UniProt P68135). The series is described as follows: stopped-flow light scattering at 340 nm, 15 °C, 120 mM ionic strength; linear fit of acto-HMM dissociation rate against [MgATP], no ADP.
Series [2] shares this target. In words: stopped-flow light scattering; acto-HMM with MgADP mixed with MgATP.
Series [3] shares this target. In words: stopped-flow light scattering at 340 nm, 15 °C; acto-HMM with MgADP mixed with MgATP.
Series [4] addresses F-actin prepared from acetone powder of rabbit muscle (UniProt P68135). The description is as above.

As to “mouse α cardiac myosin HMM (chymotryptic heavy meromyosin of native mouse ventricular α-myosin) (from UniProt Q02566 1-1285) (enzyme)”, the K1·k+2 (apparent second-order rate constant of acto-HMM dissociation by MgATP alone) in series [1] turned out to be 1.3e+06 M⁻¹ s⁻¹. In series [2], this substance yielded a fold faster rate of acto-HMM-ADP dissociation against rat α myosin of 2 fold. Moreover, the K+5 (plateau of the rate of acto-HMM dissociation by MgATP in the presence of MgADP; limited by ADP release) in series [3] was found to be 404 s⁻¹.

“rat α cardiac myosin HMM (chymotryptic heavy meromyosin of native hyperthyroid rat ventricular α-myosin) (from UniProt P02563 1-1285) (enzyme)”: the K1·k+2 (apparent second-order rate constant of acto-HMM dissociation by MgATP alone) in series [1] was determined as 820000 M⁻¹ s⁻¹. Further, in series [3], the K+5 (plateau of the rate of acto-HMM dissociation by MgATP in the presence of MgADP; limited by ADP release) was determined as 245 s⁻¹.

As to “recombinant mutant G343S chicken smooth muscle myosin HMM”, the “Kobs for acto-HMM-ADP dissociation against 2.5 and 5.0 mM MgATP” value in series [4] was “Kobs for acto-HMM-ADP dissociation against 2.5 and 5.0 mM MgATP was identical for both mutant and wild-type SmM HMM's, yielding rates of 46 s^-1”.
